Laboratory results reported in US20060189551A1 (priority 2004, published 2006).

Experiments:
[1] = system: hom6Δ mutant strain MAY308; experiment: FK506 sensitivity of hom6Δ mutant: paper disk diffusion on YPD, liquid culture growth (OD600) and microscopy; format: cell-based, S. cerevisiae
Protocol: Approximately 10^7 cells from hom6Δ mutant strain MAY308 were plated on solid YPD medium and exposed to 250 μg of FK506 diffusing form a paper disk. A control paper disk containing only the FK506 solvent (90% EtOH plus 10% Tween 20) was included. The plate was incubated at 30° C. for 2 days and photographed. As control, the same assay was conducted with isogenic wild-type strain BY4742.
FIG. 7C. hom6Δ cells from the FK506-exposed culture described for FIG. 7B were photographed using differential interference contrast microscopy after 22 hours of incubation with drug.
FK506 mimics the lethal effect of an fpr1Δ mutation in a homoserine dehydrogenase-deficient mutant. […] (FIGS. 7A, 7B, and 7C).

[2] = system: aspartokinase self-interaction; experiment: Yeast two-hybrid assay of aspartokinase self-interaction (AK-AK), lacZ reporter; format: cell-based, S. cerevisiae; conditions: two-hybrid strain PJ69-4A, 10 μg of FK506/mL

Structure (SMILES): C=CC[C@@H]1/C=C(\C)C[C@H](C)C[C@H](OC)[C@H]2O[C@@](O)(C(=O)C(=O)N3CCCC[C@H]3C(=O)O[C@H](/C(C)=C/[C@@H]3CC[C@@H](O)[C@H](OC)C3)[C@H](C)[C@@H](O)CC1=O)[C@H](C)C[C@@H]2OC (relative stereo) [FK506, [3S-[3R*[E(1S*,3S*,4S*)],4S*,5R*,8S*,9E,12R*,14R*,15S*,16R*,18S*,19S*,26aR*]]-5,6,8,11,12,13,14,15,16,17,18,19,24,25,26,26a-hexadecahydro-5,19-dihydroxy-3-[2-(4-hydroxy-3-methoxycyclohexyl)-1-methylethenyl]-14,16-dimethoxy-4,10,12,18-tetramethyl-8-(2-propenyl)-15,19-epoxy-3H-pyrido[2,1-c][1,4]oxaazacyclotricosine-1,7,20,21(4H,23H)-tetrone]
- cell morphology of hom6Δ mutant cells exposed to FK506 ([1]; 10 μg of FK506/mL, 22 hours, differential interference contrast microscopy): abnormal morphologies, indicative of a cytokinesis defect
- sensitivity of hom6Δ mutant to FK506 (growth) ([1]; 250 μg FK506 on paper disk on YPD, 30° C., 2 days, 10 μg of FK506/mL in liquid YPD, wild-type BY4742 as control): hom6Δ mutation confers sensitivity to FK506
- aspartokinase self-interaction (wild-type and mutant) in the presence of FK506 [2]: detected in the presence of FK506
